Measurements as given in PubChem BioAssay (Tox21).
Values joined by “and” are separate entries in the source; they are usually repeats but may differ in a detail not shown here. Equal values may be shown once. The entries are a selection whose mix differs from that of the whole data set. Results filed as inconclusive are left out. Active and inactive are the calls of the source. Calls follow the shape of the dose curve; as a rule, active = well fitted activation curve with a large enough effect in the repeat runs; inconclusive = weak or mixed curves; inactive = no such curve, though single readings can be large or run the other way.

Assay: qHTS assay for small molecules that induce genotoxicity in human embryonic kidney cells expressing luciferase-tagged ATAD5 (AID 651632); also: nearly all actives have a fitted effect of over 15% in size
Conditions: HEK293T ATAD5-luciferase induction, 16 h; at 83.3 µM (top of the series) unless noted
Description: U.S. Tox21 Program National Center for Advancing Translational Sciences [NCATS] NIH Chemical Genomics Center [NCGC] U.S. Environmental Protection Agency [EPA] National Institutes of Environmental Health Sciences [NIEHS] National Toxicology Program [NTP] U.S. Food and Drug Administration [FDA] Tox21 Assay Overview: As cancer cells divide rapidly and during every cell division they need to duplicate their genome by DNA replication. The failure to do so results in the cancer cell death. Based on this concept, many chemotherapeutic agents were developed but have limitations such as low efficacy and severe side effects etc. A new cell based assay was developed to find the compounds that effectively block DNA replication either by directly damaging DNA or by inhibiting other cellular mechanisms. Enhanced Level of Genome Instability Gene 1 (ELG1; human ATAD5) protein levels increase in response to various types of DNA damage. Using a luciferase reporter-gene tagged with ATAD5, a cell-based assay [developed by Kyungjae Myung, NHGRI, NIH] was used to measure the induction of ATAD5 in human embryonic kidney cells (HEK293T). So, increase in luciferase activity can be used to identify the compounds that cause genetic stress.
Tox21 Assay Protocol Summary: For genotoxicity screening, 2,000 cells in 5 uL/well were dispensed into white, solid-bottom 1536-well plates using a Multidrop Combi (Thermo Scientific) dispenser. Following transfer of 23 nL compound or DMSO vehicle by a pin tool, the plates were incubated 16 hr at 37C and 5% CO2. 5 ul Amplite (AAT Bioquest, Inc.) was then added to each plate and following 30 min incubation at room temperature, luciferase activity was quantified on a ViewLux CCD-based plate reader.
% is scaled to controls: 0 for no effect and ±100 for the full control effect.

| SMILES | activation |
| --- | --- |
| CCCCCCCCCCCCCC[P+](CCCCCC)(CCCCCC)CCCCCC | inactive: -12.7% |
| COC(=O)Cl | inactive: 1.15% |
| CCOP(=S)(CC)Sc1ccccc1 (stereo unspecified) | inactive: -2.46% |
| ClP(Cl)c1ccccc1 | inactive: 0.141% |
| CN(C(=O)Cc1ccc(Cl)c(Cl)c1)[C@H]1CC[C@@]2(CCCO2)C[C@@H]1N1CCCC1 | inactive: -2.81% |
| CC(C)CCCCCCCOP(OCCCCCCCC(C)C)Oc1ccccc1 | inactive: 2.45% |
| CCNC(C)Cc1ccc2c(c1)OCO2 (stereo unspecified) | inactive: 3.4% [at 95.3 µM] |
| O=C(OC1CN2CCC1CC2)c1ccccc1 (stereo unspecified) | inactive: 1.65% |
| CCCCC(CC)CO[P+](=O)OCC(CC)CCCC (stereo unspecified) | inactive: 2.54% |
| O=[As]c1ccccc1 (stereo unspecified) | inactive: -16.2% |
| CN(C(=O)Cc1ccccc1)[C@H]1CC[C@@]2(CCCO2)C[C@@H]1N1CCCC1 | inactive: 1.73% |
| O=P(Cl)(Oc1ccccc1)Oc1ccccc1 | inactive: 1.92% |
| O=[P+](Oc1ccccc1)Oc1ccccc1 | inactive: 1.27% |
| CCCCO[P+](=O)OCCCC | inactive: -2.81% and inactive: -0.652% |
| Cc1cc([N+](=O)[O-])cc([N+](=O)[O-])c1O | inactive: -11.8% and inactive: -1.88% |
| O=[p+]1oc2ccccc2c2ccccc21 (stereo unspecified) | inactive: 10.6% |
| COP(=S)(Cl)OC | inactive: -3.79% [at 95.3 µM] |
| CN(C(=O)Cc1cccc2occc12)[C@H]1CC[C@@]2(CCCO2)C[C@@H]1N1CCCC1 | inactive: 2.98% |
| CCOC(=O)Cl | inactive: 1% |
| Cc1cc([N+](=O)[O-])c(O)c([N+](=O)[O-])c1 | inactive: -8.75% [at 95.3 µM] |
| O=P(Cl)(Cl)c1ccccc1 | inactive: 4.45% |
